In patent US20180168208A1 (priority 2014, published 2018):
Read-outs that look alike come from different tables or passages of the source.

By UniProt entry, the sequences of proteins in these tests, tags left out. Chains listed by the source or under a name are the forms on record and can include a tag or linker. Residues count along the entry.
UniProt E3UMS2, 1-296: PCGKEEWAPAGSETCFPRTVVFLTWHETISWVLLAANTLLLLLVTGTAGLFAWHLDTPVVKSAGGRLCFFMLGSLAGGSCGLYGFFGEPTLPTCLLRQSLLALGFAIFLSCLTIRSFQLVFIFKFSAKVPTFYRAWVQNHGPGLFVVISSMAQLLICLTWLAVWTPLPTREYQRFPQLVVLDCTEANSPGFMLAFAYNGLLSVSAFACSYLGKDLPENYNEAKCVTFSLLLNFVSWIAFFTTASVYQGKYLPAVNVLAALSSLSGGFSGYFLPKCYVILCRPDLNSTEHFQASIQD
UniProt A0ABI7Z2I4, 171-420: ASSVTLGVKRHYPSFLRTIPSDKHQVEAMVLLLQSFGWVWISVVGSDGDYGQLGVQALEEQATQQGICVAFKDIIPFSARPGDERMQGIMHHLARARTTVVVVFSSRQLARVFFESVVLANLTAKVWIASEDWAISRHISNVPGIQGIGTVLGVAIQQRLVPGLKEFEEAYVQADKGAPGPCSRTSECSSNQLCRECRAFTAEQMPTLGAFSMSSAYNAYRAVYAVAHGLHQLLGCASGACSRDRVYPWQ
UniProt Q49KI5, with tags, fused parts or gaps E206Q/F654L/N523D partner limits assumed: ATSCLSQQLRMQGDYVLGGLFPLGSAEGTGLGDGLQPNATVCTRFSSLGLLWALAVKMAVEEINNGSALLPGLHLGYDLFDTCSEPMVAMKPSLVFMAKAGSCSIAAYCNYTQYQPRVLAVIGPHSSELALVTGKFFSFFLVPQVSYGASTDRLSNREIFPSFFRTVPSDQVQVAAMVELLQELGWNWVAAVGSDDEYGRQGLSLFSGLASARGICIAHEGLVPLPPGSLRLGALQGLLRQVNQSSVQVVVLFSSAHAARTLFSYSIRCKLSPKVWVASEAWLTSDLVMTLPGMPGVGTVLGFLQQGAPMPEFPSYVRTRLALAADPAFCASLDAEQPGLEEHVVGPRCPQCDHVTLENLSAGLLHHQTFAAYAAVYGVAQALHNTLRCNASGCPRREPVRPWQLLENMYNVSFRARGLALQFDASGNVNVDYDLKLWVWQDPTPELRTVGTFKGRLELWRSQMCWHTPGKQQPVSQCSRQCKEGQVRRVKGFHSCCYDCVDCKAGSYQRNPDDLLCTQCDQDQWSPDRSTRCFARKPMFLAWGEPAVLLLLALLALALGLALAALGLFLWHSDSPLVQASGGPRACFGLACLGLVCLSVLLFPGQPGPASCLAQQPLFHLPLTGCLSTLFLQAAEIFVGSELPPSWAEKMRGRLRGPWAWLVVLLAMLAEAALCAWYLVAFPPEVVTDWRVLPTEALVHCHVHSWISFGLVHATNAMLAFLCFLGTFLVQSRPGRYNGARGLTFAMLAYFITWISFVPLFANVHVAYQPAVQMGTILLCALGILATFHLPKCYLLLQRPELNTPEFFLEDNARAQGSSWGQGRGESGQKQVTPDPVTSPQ

Experiments:
T1R1/T1R3 receptor = T1R1/T1R3 receptor (Felis catus, UniProt E3UMS2); details: for Max resp % of ALa + IMP / Thres + IMP: + IMP (0.2 mM); for Max resp % of Ala +IMP: +IMP (0.2 mM); for Activity: activation of T1R1/T1R3
cat T1R1/T1R3 receptor = cat T1R1/T1R3 receptor (Felis catus, UniProt A0ABI7Z2I4)

Row | Compound | Thres +Alanine (T1R1/T1R3 receptor; + Alanine (20 nM), Table 17) | Max resp % of IMP + Alanine (T1R1/T1R3 receptor; + Alanine, Table 17) | Max resp % of ALa + IMP (T1R1/T1R3 receptor; Table 17) | Thres + IMP (T1R1/T1R3 receptor; Table 17) | Thres +Alanine (T1R1/T1R3 receptor; +Alanine (20 mM), Table 18) | Max resp % of Ala +IMP (T1R1/T1R3 receptor; Table 18) | Activity (T1R1/T1R3 receptor; Table 18) | Max resp ΔF/F + Alanine (T1R1/T1R3 receptor; + Alanine, Table 17) | Activity (cat T1R1/T1R3 receptor) | Max. resp. % of IMP (cat T1R1/T1R3 receptor) | Activity (cat T1R1/T1R3 receptor; +Alanine (20 mM))
1 | CCCC(C)NC(=O)/C=C/c1ccc(OC)c(OC)c1 (stereo not shown) | 1 mM | 35.2 % of IMP | 86.9 % of ALa | 0.55 nM | 1 mM | 86.9 % of Ala | active | – | – | – | –
2 | CCOC(=O)C(NC(=O)c1ccc2c(c1)OCO2)C(C)C (stereo not shown) | 10 mM | 25.6 % of IMP | 52.8 % of ALa | 1 nM | 10 mM | 52.8 % of Ala | active | 0.3715 | – | – | –
3 | O=P(O)(O)OC[C@H]1O[C@@H](n2cnc3c(=S)nc[nH]c32)[C@H](O)[C@@H]1O | – | – | – | – | – | – | – | – | active | 111.7 % of IMP | –
4 | O=P(O)(O)OC[C@H]1O[C@@H](n2cnc3c2ncn2ccnc32)C[C@@H]1O | – | – | – | – | – | – | – | – | – | 70.0 % of IMP | active
